The values below come from PubChem BioAssay AID743287 (Broad Institute, 2014).

Only a part is listed here, and it is no random draw. Calls of active or inactive are those of the source.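 How the source made its calls: active means lowest replicate activation of at least 40%, so every replicate reaches that level; inactive means the rest.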

This experiment is described as follows: primary screen for activators of insulin secretion dependent on glucose, INS-1E cells, GLuc reporter luminescence (AID 743287).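 Further: 0% = median of neutral control wells and 100% = median of IBMX positive control wells.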 As to conditions: INS-1E GLuc reporter insulin secretion, 2-3 h, at 16.6 µM, active compounds read high.
Regarding `CCC(=O)N(c1ccccc1)C1(COC)CCN(CCc2cccs2)CC1`, the activation is inactive: 2.4%.
In the case of `CCC(=O)N(c1ccccc1)C1(COC)CCN(CCn2nnn(CC)c2=O)CC1`, the activation was inactive: 0.997%.
